For orientation: Kd means the equilibrium constant for the complex coming apart.

In assay [1] the target is cation-independent mannose-6-phosphate receptor (CIMPR). Description: CIMPR affinity chromatography, elution with free M6P gradient, fractions read by GAA activity (4MU-α-glucose).
Assay [2] shares this target. Description: M6P receptor (CIMPR) plate binding assay, bound rhGAA read by GAA activity.
For assay [3] the target is unchanged. As to the kind of experiment: CIMPR affinity chromatography of different production batches.

As to “Myozyme® (alglucosidase alfa, conventional rhGAA, Genzyme) (from UniProt P10253 57-952)”, in assay [1], the percent of rhGAA bound (contained M6P, eluted with M6P) stood at 27% and the percent of rhGAA that did not bind came out at 73%.

As to “Lumizyme® (alglucosidase alfa, conventional rhGAA, Genzyme) (from UniProt P10253 57-952)”, in assay [1], the percent of rhGAA bound (contained M6P, eluted with M6P) was found to be 22% and the percent of rhGAA that did not bind is 78%.

In the case of “ATB200 rhGAA (recombinant human acid α-glucosidase expressed in CHO cell line GA-ATB-200) (from UniProt P10253 57-952) (enzyme)”, the Kd in assay [2] lay within 2 to 4 nM. In addition, the percent CIMPR receptor binding in assay [3] is 70%.

The values are drawn from patent EP4098274A1.
